Test results published in PMC9892271 (Journal of medicinal chemistry, 2023).

Experiments:
NTMT1 = molecular target: T1, NTMT1 (Homo sapiens, UniProt Q9BV86); settings: for IC50: NTMT1 inhibition; for fold reduction in inhibition: fluoride or nitro instead of hydroxyl at the meta position
T1 sequence (Q9BV86 1-222): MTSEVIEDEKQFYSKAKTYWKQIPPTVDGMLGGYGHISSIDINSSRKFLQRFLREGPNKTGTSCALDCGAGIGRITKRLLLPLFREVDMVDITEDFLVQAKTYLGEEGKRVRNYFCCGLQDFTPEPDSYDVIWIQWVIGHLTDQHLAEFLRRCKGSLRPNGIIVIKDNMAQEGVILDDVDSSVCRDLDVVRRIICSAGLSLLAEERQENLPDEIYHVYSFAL

[1] = system: me3-RCC1 and me3-SET in HEK293 cells; test: cellular N-methylation level study; assay type: cell-based; settings: read-out: approximate IC50
[2] = system: other methyltransferases including PKMTs, PRMTs, and DNA methyltransferases
[3] = system: me3-RCC1 and me3-SET in HEK293 cells; settings: 1 μM; cited from earlier work

CC(C)(NC(=O)O[C@@H]1CN2CCC1CC2)c1csc(-c2cccc(F)c2)n1 [Compound 37]
IC50 (NTMT1): 32 µM
fold reduction in inhibition (NTMT1): ~ 50 fold

CC(C)(NC(=O)O[C@@H]1CN2CCC1CC2)c1csc(-c2ccc(Cl)c(O)c2)n1 [YD2200]
fold improved potency compared to venglustat (NTMT1; NTMT1 IC50): 5 fold
IC50 (NTMT1): 0.11 µM

CC(C)(NC(=O)O[C@@H]1CN2CCC1CC2)c1csc(-c2ccc(F)c(O)c2)n1 [GD433]
IC50 [1]: < 0.03 µM
inhibition ([2]; at 100 μM, 40 other methyltransferases): less than 50%
inhibition ([2]; single dose of 50 μM): did not show significant inhibition

CC(C)(NC(=O)O[C@@H]1CN2CCC1CC2)c1csc(-c2cccc([N+](=O)[O-])c2)n1 [Compound 39]
fold reduction in inhibition (NTMT1): ~ 50 fold

O=C(NCc1csc(-c2ccc(F)cc2)n1)O[C@@H]1CN2CCC1CC2 [Compound 11, (S)-quinuclidin-3-yl ((2-(4-Fluorophenyl)thiazol-4-yl)methyl)carbamate]
NTMT1 inhibition (in words) (NTMT1): losing the inhibitory activity even at 100 μM

CC(C)(NC(=O)O[C@@H]1CN2CCC1CC2)c1csc(-c2ccncc2)n1 [Compound 25]
IC50 (NTMT1): > 100 µM

CC(C)(NC(=O)O[C@@H]1CN2CCC1CC2)c1csc(-c2cccc3ccccc23)n1 [Compound 22]
fold decrease compared to the phenyl ring analogue (NTMT1; NTMT1 IC50): 20 fold

CC(C)(NC(=O)O[C@@H]1CN2CCC1CC2)c1csc(-c2ccc(F)cc2)n1 [venglustat, (S)-quinuclidin-3-yl (2-(2-(4-Fluorophenyl)thiazol-4-yl)propan-2-yl)carbamate]
effect on me3-RCC1 and me3-SET [3]: significantly suppressed

CC(C)(NC(=O)O[C@@H]1CN2CCC1CC2)c1csc(-c2ccc(F)cc2O)n1 [Compound 44]
fold less potent than 43 (NTMT1; NTMT1 IC50): 10 fold

CNc1nc(C(C)(C)NC(=O)O[C@@H]2CN3CCC2CC3)cs1 [Compound 18, (S)-quinuclidin-3-yl (2-(2-(Methylamino)thiazol-4-yl)propan-2-yl)carbamate]
fold loss of potency compared to venglustat (NTMT1; NTMT1 IC50): about 100 fold

CC(C)(NC(=O)O[C@@H]1CN2CCC1CC2)c1csc(-c2ccc(F)nc2)n1 [Compound 31]
fold loss of potency compared to venglustat (NTMT1; NTMT1 IC50): 3 fold

CC(C)(NC(=O)O[C@@H]1CN2CCC1CC2)c1csc(I)n1 [Compound 15, (S)-quinuclidin-3-yl (2-(2-Iodothiazol-4-yl)propan-2-yl)carbamate]
fold loss of potency compared to venglustat (NTMT1; NTMT1 IC50): about 100 fold

CC(C)c1nc(C(C)(C)NC(=O)O[C@@H]2CN3CCC2CC3)cs1 [Compound 21, (S)-quinuclidin-3-yl (2-(2-Isopropylthiazol-4-yl)propan-2-yl)carbamate]
fold loss of potency compared to venglustat (NTMT1; NTMT1 IC50): over 150 fold

CC(C)(NC(=O)O[C@@H]1CN2CCC1CC2)c1csc(-c2cncnc2)n1 [YD2160]
NTMT1 inhibition (in words) (NTMT1): inactive

Where two headings read alike, the source gives them in different places.
